Measured values: BindingDB's records for doi:10.1016/S0960-894X(97)00333-8 (Gilead Sciences, 1997)

Target: Hemagglutinin (Influenza A virus (A/Shandong/9/1993(H3N2)), UniProt Q6DM53)
Details: pH 6.5; 37 °C

Molecule `CC(=O)N[C@H]1[C@H]([C@H](O)[C@H](O)CO)OC(C(=O)O)=C[C@@H]1N=C(N)N` [(2R,3R,4S)-4-carbamimidamido-3-acetamido-2-[(1R,2R)-1,2,3-trihydroxypropyl]-3,4-dihydro-2H-pyran-6-carboxylic acid] has a Ki of 1 nM.
